{"source": "patent US8580752B2", "about": "“Aromatic amides as potentiators of bioefficacy of anti-infective drugs” (priority 2005, dated 2013)", "test_in_all_cases": "MIC by checkerboard method", "key": {"[1]": {"tested_on": "MRSA 450", "format": "cell-based, Staphylococcus aureus", "conditions": "S aureus MRSA 450"}, "[2]": {"tested_on": "MRSA 15187", "format": "cell-based, Staphylococcus aureus", "conditions": "S aureus MRSA 15187"}, "[3]": {"tested_on": "S epidermidis ATCC 12228", "format": "cell-based"}, "[4]": {"tested_on": "S aureus ATCC 29213", "format": "cell-based, Staphylococcus aureus"}, "[5]": {"tested_on": "MRSA 33", "format": "cell-based, Staphylococcus aureus", "conditions": "S aureus MRSA 33"}, "[6]": {"tested_on": "B cereus RRL 101", "format": "cell-based"}, "[7]": {"conditions": "with compound of formula 1a 3.12 μg/ml"}, "[8]": {"conditions": "with compound of formula 1a 6.25 μg/ml"}, "[9]": {"conditions": "with compound of formula 1a 12.5 μg/ml"}, "[10]": {"conditions": "with compound of formula 1a 25.0 μg/ml"}, "[11]": {"conditions": "with compound of formula 1a 50.0 μg/ml"}}}
{"smiles": "CCC(/C=C/C(=O)N1CCCCC1)=C\\c1ccc2c(c1)OCO2", "note": "[compound of formula 1a, 4-ethyl-5-(3,4-methylenedioxyphenyl)-2E,4E-pentadienoic acid piperidine amide]", "values": [{"measurement": "MIC of Mupirocin", "setting": "[1]; [7]", "value": 0.25, "unit": "µg/mL"}, {"measurement": "MIC Ciprofloxacin", "setting": "[1]; [8]", "value": 32, "unit": "µg/mL"}, {"measurement": "MIC of Mupirocin", "setting": "[1]; [8]", "value": 0.25, "unit": "µg/mL"}, {"measurement": "MIC Ciprofloxacin", "setting": "[1]; [9]", "value": 16, "unit": "µg/mL"}, {"measurement": "MIC Ciprofloxacin", "setting": "[1]; [10]", "value": 16, "unit": "µg/mL"}, {"measurement": "MIC Ciprofloxacin", "setting": "[1]; [11]", "value": 16, "unit": "µg/mL"}, {"measurement": "MIC of Mupirocin", "setting": "[2]; [7]", "value": 0.25, "unit": "µg/mL"}, {"measurement": "MIC of Mupirocin", "setting": "[2]; [8]", "value": 0.25, "unit": "µg/mL"}, {"measurement": "MIC Ciprofloxacin", "setting": "[3]; [8]", "value": 0.12, "unit": "µg/mL"}, {"measurement": "MIC Ciprofloxacin", "setting": "[3]; [9]", "value": 0.06, "unit": "µg/mL"}, {"measurement": "MIC Ciprofloxacin", "setting": "[3]; [10]", "value": 0.03, "unit": "µg/mL"}, {"measurement": "MIC Ciprofloxacin", "setting": "[3]; [11]", "value": 0.03, "unit": "µg/mL"}, {"measurement": "MIC of Mupirocin", "setting": "[4]; [7]", "value": 0.12, "unit": "µg/mL"}, {"measurement": "MIC Ciprofloxacin", "setting": "[4]; [8]", "value": 0.12, "unit": "µg/mL"}, {"measurement": "MIC of Mupirocin", "setting": "[4]; [8]", "value": 0.12, "unit": "µg/mL"}, {"measurement": "MIC Ciprofloxacin", "setting": "[4]; [9]", "value": 0.06, "unit": "µg/mL"}, {"measurement": "MIC Ciprofloxacin", "setting": "[4]; [10]", "value": 0.06, "unit": "µg/mL"}, {"measurement": "MIC Ciprofloxacin", "setting": "[4]; [11]", "value": 0.06, "unit": "µg/mL"}, {"measurement": "MIC of Mupirocin", "setting": "[5]; [7]", "value": 0.12, "unit": "µg/mL"}, {"measurement": "MIC Ciprofloxacin", "setting": "[5]; [8]", "value": 32, "unit": "µg/mL"}, {"measurement": "MIC of Mupirocin", "setting": "[5]; [8]", "value": 0.12, "unit": "µg/mL"}, {"measurement": "MIC Ciprofloxacin", "setting": "[5]; [9]", "value": 16, "unit": "µg/mL"}, {"measurement": "MIC Ciprofloxacin", "setting": "[5]; [10]", "value": 16, "unit": "µg/mL"}, {"measurement": "MIC Ciprofloxacin", "setting": "[5]; [11]", "value": 16, "unit": "µg/mL"}, {"measurement": "MIC Ciprofloxacin", "setting": "[6]; [8]", "value": 0.12, "unit": "µg/mL"}, {"measurement": "MIC Ciprofloxacin", "setting": "[6]; [9]", "value": 0.06, "unit": "µg/mL"}, {"measurement": "MIC Ciprofloxacin", "setting": "[6]; [10]", "value": 0.03, "unit": "µg/mL"}, {"measurement": "MIC Ciprofloxacin", "setting": "[6]; [11]", "value": 0.03, "unit": "µg/mL"}]}
